This is an account of results in patent publication US5468854A, “Characterization of specific drug receptors with fluorescent ligands” (Pharmaceutical Discovery Corporation, priority 1993, dated 1995).

The test system of series [1] is benzodiazepine receptors. Nature of the series: Fluorescent ligand binding (BD 621, BD 607) to cortical membranes: association, dissociation, saturation. On the set-up: species or system rat (Sprague-Dawley).
Series [2] addresses BZ receptors. Nature of the series: Inhibition of [3H]Ro 15-1788 (0.7 nM) binding to cortical membranes. On the set-up: species or system rat (Sprague-Dawley). The conditions noted are these: for Ki: read-out: Kl, inhibition of [3H]Ro 15-1788 binding.
Series [3] deals with BZ receptors. Briefly: Attenuation of fluorescent ligand and radioligand binding in tissues photoaffinity labeled with Ro 15-4513. On the set-up: species or system rat (Sprague-Dawley). The settings on record: in words.
Series [4] in a line: Fluorescence spectra, quantum yield, extinction coefficient and solvent/tissue dependence of fluorescence. The class given is physicochemical.
The test system of series [5] is benzodiazepine receptors. The settings on record: membrane preparations of rat brain; cited from earlier work.
For series [6], the target named is BZ receptors. Nature of the series: Displacement of BD 621 or BD 607 (50 nM) binding to cortical membranes by fluorescence measurement. On the set-up: species or system rat (Sprague-Dawley).
In series [7] the target is BZ receptors. Briefly: Inhibition of BD 621 binding in cerebellar membrane. On the set-up: species or system rat. The conditions noted are these: read-out: Kl, inhibition of BD 621 binding.
The target in series [8] is BZ receptors. Nature of the series: Inhibition of [3H]Ro 15-1788 binding in cerebellar membrane. On the set-up: species or system rat. The conditions noted are these: read-out: Kl, inhibition of [3H]Ro 15-1788 binding.
The test system of series [9] is benzodiazepine receptors. Nature of the series: BD 623 fluorescence quenching/dequenching assay in brain membranes. The class given is binding, rat (Sprague-Dawley). The settings on record: for fluorescence on addition to brain membranes: suspension of brain membranes.
Series [10] can be described thus: Storage stability in Me2SO (TLC). The class given is physicochemical. The conditions noted are these: several months, dark, -80° C.
Series [11] concerns the target benzodiazepine receptors. Briefly: [3H]Ro 15-1788 radioligand binding assay (filtration), Example 4. The conditions noted are these: read-out: Kl, inhibition of [3H]Ro 15-1788 binding; 2-64 nM BD 623, 1.0 nM radioligand, n=3.
For series [12] the following is noted: aqueous sodium fluorescein, reference (18); cited from earlier work.
The subject of series [13] is BZ receptors. Briefly: Radioligand saturation binding ([3H]Ro 15-1788, [3H]flunitrazepam) to cortical membranes. On the set-up: species or system rat (Sprague-Dawley).
[14] abbreviates: compared with tissue suspension or buffer.
The mark [15] stands for this setting: read-out: Kl, inhibition of BD 607 binding.
The mark [16] stands for this setting: read-out: Kl, inhibition of BD 621 binding.
Where [17] appears, read: 64-2048 nM, BD 621 or BD 607 50 nM.
The mark [18] stands for this setting: BD 623 6.25-100 nM, dequenched with flurazepam (100 μM), n=3.
Where [19] appears, read: 0.25-12 nM radioligand, 4° C., terminated by centrifugation.

Usually Kd stands for the equilibrium constant for the complex coming apart. High values mean weaker binding, low ones tighter binding.

“And” between values parts separate entries of the source, which are not always exact repeats. Equal values may be shown once. Read-outs that look alike come from different tables or passages of the source.

Consider `O=C(NCCN1C(=O)CN=C(c2ccccc2F)c2cc(Cl)ccc21)c1ccc2c(c1)C(=O)OC21c2ccc(O)cc2Oc2cc(O)ccc21` [BD 607], for which, in the series with benzodiazepine receptors [1] (fluorescence measurement), the reversibility of binding entry is listed as “reversible”. Moreover, in the series with benzodiazepine receptors [1] (from KD by fluorescence and Ki by inhibition of radioligand binding), the “apparent affinities for BZ receptors compared with parent BZs Ro 15-1788 and Ro 7-1986” value is on record as “reduced”. Moreover, in the series with benzodiazepine receptors [1] (saturation isotherm, fluorescence measurement, cortical membranes, 4° C., centrifugation, mean ± SEM), the Bmax is listed as 4.5±0.2 pmol/mg protein. The affinity at benzodiazepine receptors [1] (saturation isotherm, fluorescence measurement, cortical membranes, 4° C., centrifugation, mean ± SEM, three determinations), expressed as Kd, was 74 ± 4 nM. For the same compound, at BZ receptors [2], the Ki stood at 165 ± 3 nM. Also, the “effect of photoaffinity labeling with Ro 15-4513 on binding” value in the series on BZ receptors [3] is reported as “abolished”. In series [4], this compound displayed an emission maximum of 521 nm and an excitation maximum of 494 nm. In series [4] (setting [14]), the “fluorescence intensity in ethanol” value was “reduced” and the “fluorescence intensity in ethyl acetate” value is given as “greatly increased”.

With `NCCCC(=O)O` [GABA, gamma-aminobutyric acid], the “effect on [3H]alprazolam binding” value with benzodiazepine receptors [5] is listed as “enhanced”.

Regarding `Cc1nnc2n1-c1ccc(Cl)cc1C(c1ccccc1)=NC2` [[^3 H]alprazolam], the “affinity of [3H]alprazolam” value in the series on benzodiazepine receptors [5] is on record as “low nanomolar affinity”.

In the case of `Cc1nnc2n1-c1ccc(Cl)cc1C(c1ccccc1Cl)=NC2` [triazolam], the results for the Ki at BZ receptors [6] (setting [15]), on BZ receptors [6] (setting [16]) and at BZ receptors [2] were 0.7 ± 0.2 nM, 1.1 ± 0.3 nM and 1.6 ± 0.1 nM, respectively.

Turning to `CN1[C@@H]2CC[C@H]1C[C@@H](OC(=O)C(CO)c1ccccc1)C2` (stereo partly drawn) [atropine], the “reduction in BD 621 or BD 607 binding” value in the series with BZ receptors [6] was “No significant reduction”. Besides, the “alteration of [3H]Ro 15-1788 binding” value in the series with BZ receptors [2] was “not altered”.

With `C[N+]1(C)CCc2cc3c(cc2C1C1OC(=O)c2c1ccc1c2OCO1)OCO3` (single isomer, unassigned) [BMI, bicuculline methiodide], the “reduction in BD 621 or BD 607 binding” value with BZ receptors [6] (setting [17]) was “No significant reduction”. The “alteration of [3H]Ro 15-1788 binding” value with BZ receptors [2] (64-2048 nM, cortical membranes) is on record as “not altered”.

Take `CN1C(=O)CN=C(c2ccc(Cl)cc2)c2cc(Cl)ccc21` [Ro 5-4864]: the “reduction in BD 621 or BD 607 binding” value with BZ receptors [6] was “No significant reduction”. Besides, the “alteration of [3H]Ro 15-1788 binding” value in the series on BZ receptors [2] is listed as “not altered”.

On to `CCOC(=O)c1cc2c(cn1)[nH]c1ccccc12` [β-CCE, ethyl-β-carboline-3-carboxylate], for which the Ki came to 8.9 ± 1.9 nM at BZ receptors [6] (setting [15]); 6.4 ± 0.2 nM on BZ receptors [6] (setting [16]); 12 ± 3 nM at BZ receptors [2]; 3.7 ± 2.5 nM on BZ receptors [7]; 10 ± 0.3 nM at BZ receptors [8].

On to `CN1C(=O)CN=C(c2ccccc2)c2cc(Cl)ccc21` [diazepam], for which the Ki on BZ receptors [6] (setting [15]) stood at 11.4 ± 6.5 nM; on BZ receptors [6] (setting [16]), 18 ± 1.9 nM; on BZ receptors [2] it was 26 ± 2 nM.

Regarding `CN1Cc2c(C(=O)OCCCNc3ccc([N+](=O)[O-])c4nonc34)ncn2-c2ccc(F)cc2C1=O` [BD 623], in the series with benzodiazepine receptors [9], the “reversibility of BD 623 binding” value is “bound reversibly” and the “fluorescence on addition to brain membranes” value is “time-dependent quenching of its fluorescence”. Further, in the series with benzodiazepine receptors [9] (setting [18]), the “Bmax by fluorescence quenching” value was 7.2±0.4 pmol/mg of protein and the affinity, expressed as Kd, was 13.9 nM. Moreover, in the series with benzodiazepine receptors [9] (membranes photoaffinity labeled with Ro 15-4513 (50 nM)), the “reduction of quenched fluorescence (specific quenching) in photoaffinity-labeled membranes” value came to 77%. Also, the “fluorescence on addition to brain membranes” value in the series on benzodiazepine receptors [9] (listed as BD-623) is reported as “time-dependent quenching of fluorescence”. Moreover, the excitation maximum in series [4] is 486±2 nm and 486 nm. Further, the quantum yield in [4] (50 mM Tris citrate (pH 7.4), sodium fluorescein as standard) is reported as 0.02. Besides, in series [4] (22° C., 50 mM Tris citrate (pH 7.4)), the extinction coefficient is 17,600 M^-1 cm^-1. For the same compound, the “quantum yield in heat-denatured membranes and in 10% and 20% ethanol” value in series [4] (boiling water bath for 10 min, 10% and 20% ethanol) is “increased quantum yield”. Further, in series [4] (tissue containing 100 μM flurazepam vs. Tris citrate buffer), the “fluorescence intensity in presence vs. absence of tissue” value is “significantly greater in the presence”. In addition, the “decomposition in Me2SO solution” value in series [10] was “did not undergo detectable decomposition”. In addition, the Ki on benzodiazepine receptors [11] stood at 5.7 nM.

Regarding `Cc1nnc2ccc(-c3cccc(C(F)(F)F)c3)nn12` [CL 218,872], the Ki on BZ receptors [6] (setting [15]) came to 115 ± 40 nM; at BZ receptors [6] (setting [16]) it was 90 ± 25 nM; at BZ receptors [2], 205 ± 3.5 nM; at BZ receptors [7] it was 62 ± 7.7 nM; on BZ receptors [8] it was 239 ± 19 nM.

Regarding `C=CCN1CC[C@]23c4c5ccc(O)c4O[C@H]2C(=O)CC[C@@]3(O)[C@H]1C5` [naloxone], the “reduction in BD 621 or BD 607 binding” value in the series on BZ receptors [6] (setting [17]) is reported as “No significant reduction”. Also, in the series with BZ receptors [2] (64-2048 nM, cortical membranes), the “alteration of [3H]Ro 15-1788 binding” value is on record as “not altered”. Also, in the series with benzodiazepine receptors [9] (large excess of benzodiazepine receptor ligands (flurazepam 100 μM), non-benzodiazepine receptor ligands 10 μM), the “dequenching of BD 623 fluorescence” value is on record as “did not effect a dequenching of fluorescence”.

Take `CCN(CC)CCN1C(=O)CN=C(c2ccccc2F)c2cc(Cl)ccc21` [flurazepam]: the Ki came to 34.2 ± 3.4 nM on BZ receptors [6] (setting [15]); 23 ± 2.9 nM at BZ receptors [6] (setting [16]); 41 ± 1 nM at BZ receptors [2]; 14 ± 1.4 nM at BZ receptors [7]; 51 ± 0.2 nM on BZ receptors [8]. Besides, in series [4] (flurazepam 100 μM), the “fluorescence at 542 nm relative to total fluorescence intensity” value is listed as below 0.1%.

Consider `O=C1OC2(c3ccc(O)cc3Oc3cc(O)ccc32)c2ccccc21` [sodium fluorescein], for which, in series [12], the “quantum yield of the standard” value is listed as 0.92.

With `CN1C(=O)CN=C(c2ccccc2F)c2cc([N+](=O)[O-])ccc21` [[^3 H] flunitrazepam], in the series on BZ receptors [13] (setting [19]), the Bmax was found to be 4.1±0.1 pmol/mg protein and binding was characterised by a dissociation constant (Kd) of 3.4 ± 0.5 nM. In the series on BZ receptors [13] (terminated by filtration), this compound returned a Bmax of 2.5 ± 0.3 pmol/mg protein and a Kd of 2.6 ± 0.1 nM.

`NCCc1c[nH]c2ccc(O)cc12` [serotonin]: the “reduction in BD 621 or BD 607 binding” value with BZ receptors [6] (setting [17]) is “No significant reduction”. Further, in the series on BZ receptors [2] (64-2048 nM, cortical membranes), the “alteration of [3H]Ro 15-1788 binding” value is “not altered”.
